From EP4567040A1, “CRYSTAL FORM OF FUSED TRICYCLIC DERIVATIVE AND PREPARATION METHOD” (Jiangsu Hengrui Pharmaceuticals Co., Ltd., priority 2022, dated 2024)

Target: T1, human PXR (Homo sapiens, UniProt O75469)
T1 construct: host or cells: DPX2 (HepG2 stably transfected)
T1 sequence (O75469 1-434): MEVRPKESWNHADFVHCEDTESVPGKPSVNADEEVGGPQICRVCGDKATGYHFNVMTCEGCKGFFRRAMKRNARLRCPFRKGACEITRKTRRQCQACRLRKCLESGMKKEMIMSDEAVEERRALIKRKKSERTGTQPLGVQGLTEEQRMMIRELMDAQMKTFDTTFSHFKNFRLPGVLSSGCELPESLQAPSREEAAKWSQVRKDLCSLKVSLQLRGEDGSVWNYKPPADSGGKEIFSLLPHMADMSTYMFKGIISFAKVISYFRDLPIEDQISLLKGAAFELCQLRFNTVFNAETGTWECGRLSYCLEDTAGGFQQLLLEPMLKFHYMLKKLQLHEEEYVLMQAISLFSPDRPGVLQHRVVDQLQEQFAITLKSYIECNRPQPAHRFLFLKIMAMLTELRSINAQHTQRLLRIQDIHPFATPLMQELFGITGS
Test: PXR induction assay in DPX2 cells (luciferase reporter)
Assay type: cell-based
Method: • 1. The potential of the test compounds to induce the activity of drug metabolism enzymes through in vitro activation of PXR was evaluated. EC50 values for the test compounds were obtained by assessing the in vitro activation of PXR by different concentrations of the test compounds (30, 10, 3.33, 1.11, 0.370, and 0.123 µM). The concentrations of the positive control rifampicin were 20, 5, 1.25, 0.312, 0.0781, and 0.195 µM. • 2. Materials and reagents • 1) DPX2 (HepG2 cells were stably transfected with the human PXR gene and the fluorescent reporter gene) cells were purchased from Puracyp (Carlsbad, CA). • 2) The test compounds were provided by the sponsor; the control drug (rifampicin) was purchased from Sigma (St. Louis, MO). • 3) The CellTiter-Fluor™ cell viability assay kit and the One-Glo fluorescence assay kit were purchased from Promega (Madison, WI); fetal bovine serum (FBS) was purchased from Corning (Manassas, VA); the MTS3 shaker was purchased from IKA Labortechnik (Staufen, Germany); DMEM, penicillin, and streptomycin were purchased from local suppliers; hygromycin B and G418 were purchased from Merck (Darmstadt, Germany); the cell culture medium and DPX2 cells were purchased from Puracyp Inc. • 3. Experimental procedures • 3.1. […]

With `CO[C@H]1/C=C/O[C@@]2(C)Oc3c(C)c(O)c4c(O)c(c(/C=N/N5CCN(C)CC5)c(O)c4c3C2=O)NC(=O)/C(C)=C\C=C\[C@H](C)[C@H](O)[C@@H](C)[C@@H](O)[C@@H](C)[C@H](OC(C)=O)[C@@H]1C` [Rifampicin, reference compound] the fold induction at 24 h, 0.0195 µM (compound concentration 0.0195 µM) was 1.33 and the fold induction at 24 h, 20 µM (compound concentration 20.0 µM) was 17.6.
